From ChEMBL document CHEMBL3393060, “Inhibitors of c-Jun N-terminal kinases: an update” (J Med Chem, 2015)

The chains behind the UniProt entries cited, without tags or fusion partners. Where a name states a change or a piece, a line headed by the entry shows the natural chain unless it says otherwise.
UniProt P53779: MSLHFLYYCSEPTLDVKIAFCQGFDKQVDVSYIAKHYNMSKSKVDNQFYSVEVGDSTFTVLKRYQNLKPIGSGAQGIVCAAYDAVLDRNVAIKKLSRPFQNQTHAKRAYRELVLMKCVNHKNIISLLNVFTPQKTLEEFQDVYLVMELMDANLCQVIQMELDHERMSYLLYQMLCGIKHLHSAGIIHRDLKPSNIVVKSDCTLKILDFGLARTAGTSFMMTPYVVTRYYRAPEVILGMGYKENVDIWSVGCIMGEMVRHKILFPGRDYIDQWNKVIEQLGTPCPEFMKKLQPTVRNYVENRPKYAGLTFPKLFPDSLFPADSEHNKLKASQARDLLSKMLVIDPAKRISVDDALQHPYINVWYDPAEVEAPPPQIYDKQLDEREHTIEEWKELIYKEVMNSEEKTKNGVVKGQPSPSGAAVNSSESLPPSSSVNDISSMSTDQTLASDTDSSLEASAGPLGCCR

Columns and labels:
[1] = biological target: T1, Mitogen-activated protein kinase 10 (Homo sapiens, UniProt P53779); assay: Inhibition of JNK3 (unknown origin) after 1 hr incubation
[2] = biological target: T1, Mitogen-activated protein kinase 10; assay: Inhibition of JNK3-mediated c-jun phosphorylation in human HeLa cells after 1 hr incubation; assay type: cell-based

**Q.** `CN(C)C/C=C/C(=O)Nc1cccc(C(=O)Nc2ccc(Nc3nccc(-c4cccnc4)n3)cc2)c1` was tested. Which IC50 [1] did it give?
**A.** 0.7 nM

**Q.** What about the IC50 [2] of the same molecule?
**A.** 130 nM
